{"source": "paper PMC7357845", "target": "untagged ZASP-S WT (human) (UniProt O75112)", "experiment": "SPR"}
{"substance": "rabbit skeletal muscle G-actin (from UniProt P68135 1-377) (natural protein)", "values": [{"measurement": "Kd", "result": 25, "unit": "nM"}]}
